Measured values as given in patent US7754772B2, “Nitrosated nonsteroidal antiinflammatory compounds, compositions and methods of use” (NicOx, S.A., priority 2002, dated 2010).

Legend:
[1] = test system: Male Sprague-Dawley rats, carrageenan paw edema; assay: rat paw edema test (carrageenan), antiinflammatory activity; type: in vivo; details: oral gavage one hour prior to subplantar carrageenan, paw volume three hours later, expressed as ratio (Vehicle = 1)
[2] = test system: Male Sprague Dawley rats, gastric hemorrhagic lesion; assay: rat gastric lesion test; details: rat fasted 24 hours, oral gavage, lesion score (summed length, mm) three hours after dosing; ratio relative to parent NSAID (Naproxen = 1)

(2R)-7-(Nitrooxy)-4,8-dioxabicyclo(3.3.0)oct-2-yl(2S)-2-(6-methoxy (2-naphthyl)) propanoate
Relative Activity Antiinflammation [1]: 0.45 | Relative Activity Gastric Lesion [2]: 0.09
